This note sets out measurements from patent publication US6448011B1, “DNA encoding human alpha 1 adrenergic receptors and uses thereof” (Synaptic Pharmaceutical Corporation, priority 1992, dated 2002).

In assay [1] the target is T1, human α1c-adrenergic receptor (Homo sapiens, UniProt P35348).
T1 sequence (P35348 1-466): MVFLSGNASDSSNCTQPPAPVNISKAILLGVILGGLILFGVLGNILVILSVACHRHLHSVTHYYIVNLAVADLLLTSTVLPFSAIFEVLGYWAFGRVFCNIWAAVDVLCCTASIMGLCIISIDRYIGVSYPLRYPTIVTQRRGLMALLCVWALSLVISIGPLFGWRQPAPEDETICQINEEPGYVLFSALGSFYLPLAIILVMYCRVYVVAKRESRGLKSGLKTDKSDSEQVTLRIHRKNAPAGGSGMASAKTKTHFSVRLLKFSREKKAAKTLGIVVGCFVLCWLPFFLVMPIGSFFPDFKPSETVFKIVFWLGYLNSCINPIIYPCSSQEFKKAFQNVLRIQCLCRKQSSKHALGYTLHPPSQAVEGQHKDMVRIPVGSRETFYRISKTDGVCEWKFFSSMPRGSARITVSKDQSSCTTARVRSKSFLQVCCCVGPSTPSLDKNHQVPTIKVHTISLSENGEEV
Briefly: Competition for / saturation of [3H]prazosin binding to membranes of LM(tk-) cells expressing human α1c.

Assay [2] deals with T1, human α1c-adrenergic receptor. Kind of assay: biochemical.
For assay [3] the target is unchanged. The following applies: 10 μM NE, α1c transfected cell line, n=6.
The mark [4] stands for this setting: read-out: affinity for the human α1c subtype.

Several values for one entry are separate records, joined by “and”; a condition that tells them apart may be missing. Equal values may be shown once.

In the case of “4-fluoro-4-(8-fluoro-1,3,4,5-tetrahydro-2H-pyrido[4,3-b]indol-2-yl)butyrophenone hydrochloride [Compound A-30360]”, the “Human Alpha-1 Adrenergic (pK1) a1C” value in assay [1] was 8.52.

Take `COc1ccccc1N1CCN(CCCNc2c(C)c(=O)n(C)c(=O)n2C)CC1` [5-Methyl Urapidil, 5-methylurapidil]: in assay [1], the “pKi α1c” value was 8.160 ± 0.11. In addition, the Ki in assay [1] (setting [4]) stood at 7 nM.

`O=C(CCCN1CCC(NC(=O)c2ccccc2)CC1)c1ccc(Cl)cc1` [Compound 7, 1-[3-(4-chlorobenzoyl)propyl]-4-benzamidopiperidine]: the Ki in assay [2] was 3.8 nM.

`O=C(CCCN1CCC(NC(=O)c2ccccc2)CC1)c1ccccc1` [Compound 9, 1-(3-benzoylpropyl)-4-benzamidopiperidine] had a Ki in assay [1] of 14.8 nM.

With `O=C(NC1CCN(CCc2c[nH]c3ccccc23)CC1)c1ccccc1` [Indoramin], the Ki in assay [2] is 4.56 nM and 4.47 nM.

`c1ccc2c(CC3=NCCN3)cccc2c1` [Naphazoline] had a Ki in assay [2] of 197 nM.

On to `NC[C@H](O)c1ccc(O)c(O)c1` [Norepinephrine], for which the “increase of [Ca2+]i” value in assay [3] is 224 ± 79 nM.

In assay [2], `COc1ccccc1N1CCN(CCCNc2cc(=O)n(C)c(=O)n2C)CC1` [Urapidil] gave a Ki of 103 nM.

Regarding `COc1cccc(OC)c1OCCNCC1COc2ccccc2O1` (stereo not shown) [WB-4101], the “pKi α1c” value in assay [1] amounted to 9.080 ± 0.09. In addition, the Ki in assay [1] (setting [4]) was 0.8 nM.

`Cc1cc(C(C)(C)C)cc(C)c1CC1=NCCN1` [Xylometazoline]: in assay [1], the Ki was 31.7 nM and the “fold higher potency at the α1c-AR” value was 52 fold.
